Measurements published in ChEMBL document CHEMBL4376804, “Review of Transient Receptor Potential Canonical (TRPC5) Channel Modulators and Diseases” (J Med Chem, 2019).

By UniProt entry, the sequences of proteins in these tests, tags left out. Where a name states a change or a piece, a line headed by the entry shows the natural chain unless it says otherwise.
UniProt P48995: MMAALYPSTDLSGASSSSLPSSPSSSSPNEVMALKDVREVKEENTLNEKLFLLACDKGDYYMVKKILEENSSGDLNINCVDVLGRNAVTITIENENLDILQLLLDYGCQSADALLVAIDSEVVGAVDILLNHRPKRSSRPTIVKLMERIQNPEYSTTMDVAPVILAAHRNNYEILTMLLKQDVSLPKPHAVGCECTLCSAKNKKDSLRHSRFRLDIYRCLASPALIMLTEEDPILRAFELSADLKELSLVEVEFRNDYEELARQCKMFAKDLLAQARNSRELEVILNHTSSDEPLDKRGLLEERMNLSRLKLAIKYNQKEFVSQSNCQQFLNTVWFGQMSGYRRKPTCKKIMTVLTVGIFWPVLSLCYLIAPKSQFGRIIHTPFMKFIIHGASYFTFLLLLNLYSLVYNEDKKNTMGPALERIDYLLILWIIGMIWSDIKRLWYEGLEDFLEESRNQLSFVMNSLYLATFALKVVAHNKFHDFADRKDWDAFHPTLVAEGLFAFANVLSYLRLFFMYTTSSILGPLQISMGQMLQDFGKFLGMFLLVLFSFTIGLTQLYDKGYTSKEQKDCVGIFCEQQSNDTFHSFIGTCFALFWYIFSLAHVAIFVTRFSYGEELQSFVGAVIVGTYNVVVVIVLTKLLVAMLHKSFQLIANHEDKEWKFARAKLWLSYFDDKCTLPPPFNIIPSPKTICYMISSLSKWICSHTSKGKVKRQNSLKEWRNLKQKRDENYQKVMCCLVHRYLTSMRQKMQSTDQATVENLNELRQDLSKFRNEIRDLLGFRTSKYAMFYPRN

Assays:
Conditions in all cases: HEK293, 5 uM
[1] = biological target: T1, Short transient receptor potential channel 4 (Homo sapiens) (UniProt Q9UBN4)
T1 sequence (whole entry): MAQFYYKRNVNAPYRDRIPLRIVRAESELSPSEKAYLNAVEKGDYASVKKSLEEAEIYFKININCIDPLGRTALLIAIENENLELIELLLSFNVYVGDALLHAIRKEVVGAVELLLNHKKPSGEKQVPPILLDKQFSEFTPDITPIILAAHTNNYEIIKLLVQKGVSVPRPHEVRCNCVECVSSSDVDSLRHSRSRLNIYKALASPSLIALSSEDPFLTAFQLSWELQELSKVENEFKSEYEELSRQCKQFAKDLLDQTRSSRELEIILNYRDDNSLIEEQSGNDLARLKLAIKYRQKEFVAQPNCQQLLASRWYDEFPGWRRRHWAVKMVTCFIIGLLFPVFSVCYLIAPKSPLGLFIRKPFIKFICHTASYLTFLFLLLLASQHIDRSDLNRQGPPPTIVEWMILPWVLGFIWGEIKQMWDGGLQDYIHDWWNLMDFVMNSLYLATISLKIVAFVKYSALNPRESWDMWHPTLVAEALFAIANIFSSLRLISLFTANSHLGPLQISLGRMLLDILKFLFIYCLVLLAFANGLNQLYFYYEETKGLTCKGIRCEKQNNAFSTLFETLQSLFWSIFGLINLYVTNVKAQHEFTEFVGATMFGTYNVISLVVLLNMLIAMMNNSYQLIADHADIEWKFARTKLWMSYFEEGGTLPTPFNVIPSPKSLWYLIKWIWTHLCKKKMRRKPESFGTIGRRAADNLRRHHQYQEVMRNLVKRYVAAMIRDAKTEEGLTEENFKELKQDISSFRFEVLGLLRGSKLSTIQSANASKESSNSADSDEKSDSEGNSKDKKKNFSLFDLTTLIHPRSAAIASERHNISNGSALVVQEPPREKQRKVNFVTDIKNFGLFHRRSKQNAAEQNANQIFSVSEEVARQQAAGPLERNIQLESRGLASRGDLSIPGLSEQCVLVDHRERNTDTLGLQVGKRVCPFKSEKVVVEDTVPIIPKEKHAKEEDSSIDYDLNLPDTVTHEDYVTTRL

[2] = biological target: TRPC1/TRPC5 (Homo sapiens) (UniProt Q9UL62+P48995)
[3] = biological target: T2, Short transient receptor potential channel 5 (Homo sapiens) (UniProt Q9UL62)
T2 sequence (whole entry): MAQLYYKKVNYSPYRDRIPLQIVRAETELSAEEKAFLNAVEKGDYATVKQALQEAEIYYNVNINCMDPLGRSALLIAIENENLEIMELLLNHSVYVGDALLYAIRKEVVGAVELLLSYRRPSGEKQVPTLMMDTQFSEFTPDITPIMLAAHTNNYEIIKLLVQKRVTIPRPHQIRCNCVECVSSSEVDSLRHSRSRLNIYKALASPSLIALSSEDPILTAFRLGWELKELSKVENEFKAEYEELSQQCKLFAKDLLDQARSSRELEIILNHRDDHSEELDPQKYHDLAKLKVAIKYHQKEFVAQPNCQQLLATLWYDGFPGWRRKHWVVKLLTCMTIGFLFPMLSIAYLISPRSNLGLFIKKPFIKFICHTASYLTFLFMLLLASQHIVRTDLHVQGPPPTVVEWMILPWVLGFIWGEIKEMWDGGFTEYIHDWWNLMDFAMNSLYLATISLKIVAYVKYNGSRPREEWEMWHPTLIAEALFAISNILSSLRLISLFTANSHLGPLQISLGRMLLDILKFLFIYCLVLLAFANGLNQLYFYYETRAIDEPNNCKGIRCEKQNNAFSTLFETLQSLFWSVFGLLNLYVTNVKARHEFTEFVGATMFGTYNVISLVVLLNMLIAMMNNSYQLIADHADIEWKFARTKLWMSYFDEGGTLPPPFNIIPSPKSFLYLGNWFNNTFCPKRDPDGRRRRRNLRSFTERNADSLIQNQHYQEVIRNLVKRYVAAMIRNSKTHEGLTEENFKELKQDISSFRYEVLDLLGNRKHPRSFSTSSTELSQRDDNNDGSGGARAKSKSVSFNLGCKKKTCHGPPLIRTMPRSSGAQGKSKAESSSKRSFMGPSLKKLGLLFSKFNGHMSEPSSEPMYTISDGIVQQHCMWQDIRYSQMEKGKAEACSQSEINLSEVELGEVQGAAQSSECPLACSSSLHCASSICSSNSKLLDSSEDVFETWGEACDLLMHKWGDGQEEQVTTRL

Measured: inhibition

O=c1c(O)c(-c2ccccc2Br)oc2cc(O)cc(O)c12
65%: [1] | [2] | [3]
